Test results from PubChem BioAssay AID2112 (National Center for Advancing Translational Sciences (NCATS), 2009).
Only a part is listed here, and it is no random draw. Some salts and complexes are drawn in separate pieces, as the source files them; their charges need not balance. The source made the active and inactive calls. Calls follow the shape of the dose curve; as a rule, active = well fitted inhibition curve with a large enough effect; inconclusive = small, poorly fitted or top-dose-only effect, or effect the other way, or another doubt; inactive = no such curve, though single readings can be large or run the other way.

Each compound was assayed against Lysosomal alpha-glucosidase (Homo sapiens) (UniProt P10253) (assay: qHTS Assay for Inhibitors and Activators of Human alpha-Glucosidase From Spleen Homogenate). Conditions: 4-MU-alpha-glucoside fluorescence; at 79.9 µM (top of the series).
From the text: NIH Chemical Genomics Center [NCGC] NIH Molecular Libraries Probe Production Centers Network [MLPCN] MLPCN Grant: R03 MH084841-01 Assay Submitter (PI): Wei Zheng NCGC Assay Overview: Alpha-glucosidase is responsible for the hydrolysis of terminal, non-reducing 1,4-linked alpha-D-glucose residues, which releases alpha-D-glucose. It is a lysosomal hydrolase that is required for the degradation of a small percentage (1-3%) of cellular glycogen in humans. Deficiency of this enzyme results in glycogen-storage disease type II (GSDII), also referred to as Pompe disease, an autosomal recessive disorder. Structurally normal glycogen is accumulated in the lysosomes and cytoplasm in affected patients, primarily in muscle tissues. Excessive glycogen storage within lysosomes may interrupt normal functioning of other organelles and leads to cellular injury. In turn, this leads to enlargement and dysfunction of the entire organ involved (eg: cardiomyopathy and muscle weakness). It has been reported that the improper folding and trafficking of alpha-glucosidase resulting from genetic mutations may account for a significant number of Pompe patients. […] We optimized this alpha-glucosidase assay in 1536-well plate format for identification of novel small molecule inhibitors or activators with structures other than the sugar analogs in order to develop new pharmacological chaperones. In particular, this assay is directed towards discovering compounds active in a more natural setting, tissue homogenate, that may have been missed by screens of the purified enzyme under more stringent conditions.
NCGC Assay Protocol Summary: This is a fluorogenic enzyme assay with 4-methylumbelliferyl-alpha-D-glucopyranoside as the substrate and human spleen homogenate containing alpha-glucosidase as the enzyme preparation. Upon hydrolysis of this fluorogenic substrate, the resulting product, 4-methylumbelliferone (which excites at 365 nm and emits at 440 nm) can be detected by a fluorescence plate reader. Data were normalized to the controls for basal activity (without enzyme) and 100% activity (with enzyme). The AC50 values were determined from concentration-response data modeled with the standard Hill equation. Assay buffer: 50 mM citric acid (titrated with potassium phosphate to pH 5.0), 0.01% Tween-20 (pH 5.0 is an optimal condition for this enzyme assay) 1536-well assay protocol for the alpha-glucosidase from human spleen homogenate: (1) Add 2 ul/well spleen homogenate (1 ug) (2) Add 23 nL compounds in DMSO solution. The final titration was 0.5 nM to 58 uM. (3) Add 2 ul of substrate (1 mM final) (4) Incubate at 37 C for 40 min (5) Add 2 ul stop solution (1M NaOH and 1M Glycine mixture, pH 10) (6) Detect the assay plate in a ViewLux plate reader (PerkinElmer) with Ex=365 nm and Em=440nm. Keywords: Alpha-glucosidase, Pompe Disease, pharmacological chaperone, chaperone therapy, high throughput screening, alpha-glucosidase inhibitor, MLSMR, MLSCN, NIH Roadmap, qHTS and NCGC
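Also: 0% = enzyme with vehicle and -100% = no enzyme basal signal.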

Row | SMILES | activity change, negative = inhibition
1 | COc1ccc(C(=O)NCC2(N3CCOCC3)CCCCC2)cc1OC | inactive: -1.64%
2 | N/C(=N\O)c1c(N)no[n+]1[O-] | inactive: 3.92%
3 | O=C(O)c1cccc(Nc2c([N+](=O)[O-])cc([N+](=O)[O-])cc2[N+](=O)[O-])c1 | inactive: -17.9%
4 | O=C(OC1CN2CCC1CC2)C1c2ccccc2C=Cc2ccccc21 (stereo not drawn) | inactive: -0.534%
5 | N#Cc1ccc(C(=O)NCC2(N3CCCCC3)CCCCC2)cc1 | inactive: 5.03%
6 | CCOC(=O)C(CC)C1=NC(C)(C)Cc2ccccc21.O=[N+]([O-])c1cc([N+](=O)[O-])c(O)c([N+](=O)[O-])c1 (stereo not drawn) | inactive: 5.27%
7 | ClCCOP(OCCCl)OCCCl | inactive: -4.05%
8 | c1ccc(CN2CCC(Nc3ccccc3)CC2)cc1 | inactive: -7.07%
9 | Fc1ccccc1NC1CCN(Cc2ccccc2)CC1 | inactive: -4.26%
10 | CCN1CCC(Nc2cccc(F)c2)CC1 | inactive: 3.15%
11 | CN(C)c1ccc(C(=O)NCC2(N3CCCCC3)CCCCC2)cc1 | inactive: 0.222%
12 | CCOc1ncccc1C(=O)NCC1(N2CCOCC2)CCCCC1 | inactive: -5.75%
13 | COc1cc(OC)cc(C(=O)NCC2(N3CCOCC3)CCCCC2)c1 | inactive: -6.87%
14 | CCC(CO)(C(=O)OC1CN2CCC1CC2)c1ccccc1 (stereo not drawn) | inactive: 2.42%
15 | CCCOc1ccc(C)cc1CN(CCCl)CCCl | inactive: -17.4%
16 | COc1ccc(C(=O)NCC2(N3CCCCC3)CCCCC2)c(OC)c1OC | inactive: 1.26%
17 | O=C(NCC1(N2CCOCC2)CCCCC1)c1cc2ccccc2o1 | inactive: -1.6%

Row | SMILES | activity change, negative = inhibition
18 | O=C(OC1CN2CCC1CC2)C1c2ccccc2Oc2ccccc21 (stereo not drawn) | inactive: 3.55%
19 | N#CC1(Nc2ccccc2)CCN(Cc2ccccc2)CC1 | inactive: 0.281%
20 | CCOC(=O)N1CCC(Nc2ccc(OC)cc2)CC1 | inactive: -5.83%
21 | CCOc1ccc(C)cc1CN(CCCl)CCCl | inactive: 1.12%
22 | COc1ccc(NC2CCN(CCc3ccccc3)CC2)c(OC)c1 | inactive: -5.96%
23 | Cc1ccc(OCC(C)C)c(CN(CCCl)CCCl)c1 | inactive: -5%
24 | N#CC1(Nc2ccccc2)CCN(CCc2ccccc2)CC1 | inactive: 2.36%
25 | O=[N+]([O-])c1cc([N+](=O)[O-])c(NCC2CCS(=O)(=O)C2)c([N+](=O)[O-])c1 (stereo not drawn) | inactive: 1.99%
26 | O=C(NCC1(N2CCOCC2)CCCCC1)c1cc(=O)[nH]c2ccccc12 | inactive: -12.2%
27 | CN1CCN(CCOC(=O)C(O)(c2ccccc2)c2ccccc2)CC1 | inactive: 1.95%
28 | CC(C)c1ccc(NC2CCN(C(=O)OC(C)(C)C)CC2)cc1 | inactive: -15.3%
29 | CN(C)c1cccc(C(=O)NCC2(N3CCCCC3)CCCCC2)c1 | inactive: -16.4%
30 | COc1ccc(CN(CCCl)CCCl)cc1Cl | inactive: -1.99%
31 | CCOP(=O)(Cl)Cl | inactive: 4.5%
32 | O=C(OC1CN2CCC1CC2)c1ccc([N+](=O)[O-])cc1 (stereo not drawn) | inactive: -4.26%
33 | COc1ccc2c(c1O)-c1c(O)c(OC)cc3c1[C@H](C2)[N+](C)(C)CC3.O=[N+]([O-])c1cc([N+](=O)[O-])c([O-])c([N+](=O)[O-])c1[O-] | inactive: -2.41%
